Where a chain is given by its changes, count along the chain named.
Assays:
[1] = molecular target: T1, human GLP-1 receptor (human), P43220; experiment: cell-based or functional assay
T1 chain: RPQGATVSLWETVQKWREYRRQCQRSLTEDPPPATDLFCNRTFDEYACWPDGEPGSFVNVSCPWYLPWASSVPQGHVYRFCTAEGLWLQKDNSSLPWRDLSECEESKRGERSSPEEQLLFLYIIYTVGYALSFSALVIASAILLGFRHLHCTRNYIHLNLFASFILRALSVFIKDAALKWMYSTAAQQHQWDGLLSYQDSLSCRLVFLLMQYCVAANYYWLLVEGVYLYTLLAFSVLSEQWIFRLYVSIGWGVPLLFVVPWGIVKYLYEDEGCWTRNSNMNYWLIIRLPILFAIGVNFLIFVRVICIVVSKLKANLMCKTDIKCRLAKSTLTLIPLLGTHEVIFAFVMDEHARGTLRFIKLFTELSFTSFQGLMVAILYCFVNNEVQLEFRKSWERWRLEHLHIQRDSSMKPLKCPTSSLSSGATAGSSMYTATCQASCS

[2] = molecular target: human glucagon receptor (human), P47871; experiment: cell-based or functional assay

B1: oxyntomodulin analog (SEQ ID NO: 4) (peptide)
peptide: HGQGTFTSDYSRYLEEEAVRLFIEWLKNGGPSSGAPPPS
modifications: not checked
[1]
  EC50 (nM), cAMP, CHO/GLP-1R: 5.5 nM

B2: oxyntomodulin analog (SEQ ID NO: 17) (peptide)
peptide: HSQGTFTSDYSRYLDEEAVRLFIEWIRNTKRNRNNIA
modifications: not checked
[2]
  EC50 (nM), cAMP, CHO/GCGR: > 1000 nM
[1]
  EC50 (nM), cAMP, CHO/GLP-1R: 97.9 nM

B3: oxyntomodulin analog (SEQ ID NO: 2) (peptide)
peptide: B2 peptide with R12K, I26L, R27M
modifications: not checked
[2]
  EC50 (nM), cAMP, CHO/GCGR: 12.8 nM
[1]
  EC50 (nM), cAMP, CHO/GLP-1R: 51.8 nM

Reference: patent publication US20180237490A1
